One experiment addresses T1, iNOS (Homo sapiens, UniProt P35228).
T1 construct: purchased Enzo Life Sciences, Inc. (New York, USA)
As to the kind of experiment: NOS inhibition assay (L-citrulline, fluorometric detection), iNOS. The format is biochemical. The conditions noted are these: read-out: Enzyme percent inhibition, positive control. The procedure: (§1) The investigated compounds were tested at 1 µM against the iNOS and 10 µM against the eNOS to determine their isoform selectivity. Because of its critical role in cardiovasculature, inhibiting the constitutive enzyme eNOS should be avoided.
(§2) Refer to Supplementary Appendix SA1 for more details.
(§3) 4.2.4. NOS inhibition assay
(§4) Recombinant human iNOS was purchased from Enzo Life Sciences, Inc. (New York, USA).
(§5) Recombinant bovine eNOS was purchased from Cayman Chemical (Ann Arbor, USA). To measure iNOS activity, 10 μL of enzyme stock solution were added to 80 μL of 2-[4-(2-hydroxyethyl) piperazin-1-yl]ethanesulfonic acid (HEPES) buffer pH = 7.4, 100 mM, containing 0.1 mM CaCl2, 1 mM D,L-dithiothreitol (DTT), 0.5 mg/mL BSA, 10 μM flavin mononucleotide (FMN), 10 μM flavin adenine dinucleotide (FAD), 30 μM tetrahydrobiopterin (BH4), 10 μg/mL calmodulin (CaM), 10 μM L-Arg. For the eNOS activity evaluation, 25 μL of the enzyme stock solution were added to 65 μL of HEPES buffer containing 2 mM CaCl2 and the same cofactors […]
(§6) μM) were added to the enzyme assay solution, followed by pre -incubation of 15 min at 37 ◦C.
(§7) Each reaction was initiated by the addition of 10 μL of NADPH 7.5 mM, carried out at 37 ◦C for 30 min, and stopped by adding 500 μL of ice -cold CH3CN. The mixture was brought to dryness under vacuum and eventually stored at – 20 ◦C, before the HPLC analysis. […]

Another experiment concerns the target T2, eNOS (Bos taurus, UniProt P29473).
T2 construct: purchased Cayman Chemical (Ann Arbor, USA)
As to the kind of experiment: NOS inhibition assay (L-citrulline, fluorometric detection), eNOS. Type of experiment: biochemical, bovine. The procedure: as §1, §2, §3, §4, §5, §6, §7

Consider `CC(=N)NCc1cccc(CN)c1` [1400 W, reference compound], for which, at iNOS, the inhibition at 10 µM stood at 100%. This molecule also had an IC50 against eNOS of over 50 µM.

Usually inhibition stands for the relative decrease from the control value, in per cent. One may read the IC50 as the concentration at which inhibition is half-maximal.
